Tests used:
mammalian cells = conditions: cited from earlier work

## Poly-L-lysine [Poly L-lysine]
Mammalian cells
  induction of apoptosis of mammalian cells: significant apoptosis
Raw264.7 cells
  concentration inducing over 50% cell death: approximately 20 μg/ml

Source: patent US9468650B2, “Inhibition of endosomal toll-like receptor activation” (DUKE UNIVERSITY, priority 2009, dated 2016)
